Measurements as given in PMC5148701 (Journal of medicinal chemistry, 2016).

System: HEK293T cells expressing the GloSensor-22F alone (no hD2R)

Compound: CCCN1CCC[C@@H]2Cc3n[nH]cc3C[C@H]21 [quinpirole]
- nonspecific cAMP inhibition in cells not expressing D2R: no inhibition
